Drawing on ChEMBL document CHEMBL4619828, “Discovery of Potent and Orally Bioavailable Small Molecule Antagonists of Toll-like Receptors 7/8/9 (TLR7/8/9)” (ACS Med Chem Lett, 2020), this text covers inhibition for 1 molecule.

Each structure is given as a SMILES string.

The target in the assay is T1, Toll-like receptor 9 (Homo sapiens) (UniProt Q9NR96).
T1 sequence (whole entry): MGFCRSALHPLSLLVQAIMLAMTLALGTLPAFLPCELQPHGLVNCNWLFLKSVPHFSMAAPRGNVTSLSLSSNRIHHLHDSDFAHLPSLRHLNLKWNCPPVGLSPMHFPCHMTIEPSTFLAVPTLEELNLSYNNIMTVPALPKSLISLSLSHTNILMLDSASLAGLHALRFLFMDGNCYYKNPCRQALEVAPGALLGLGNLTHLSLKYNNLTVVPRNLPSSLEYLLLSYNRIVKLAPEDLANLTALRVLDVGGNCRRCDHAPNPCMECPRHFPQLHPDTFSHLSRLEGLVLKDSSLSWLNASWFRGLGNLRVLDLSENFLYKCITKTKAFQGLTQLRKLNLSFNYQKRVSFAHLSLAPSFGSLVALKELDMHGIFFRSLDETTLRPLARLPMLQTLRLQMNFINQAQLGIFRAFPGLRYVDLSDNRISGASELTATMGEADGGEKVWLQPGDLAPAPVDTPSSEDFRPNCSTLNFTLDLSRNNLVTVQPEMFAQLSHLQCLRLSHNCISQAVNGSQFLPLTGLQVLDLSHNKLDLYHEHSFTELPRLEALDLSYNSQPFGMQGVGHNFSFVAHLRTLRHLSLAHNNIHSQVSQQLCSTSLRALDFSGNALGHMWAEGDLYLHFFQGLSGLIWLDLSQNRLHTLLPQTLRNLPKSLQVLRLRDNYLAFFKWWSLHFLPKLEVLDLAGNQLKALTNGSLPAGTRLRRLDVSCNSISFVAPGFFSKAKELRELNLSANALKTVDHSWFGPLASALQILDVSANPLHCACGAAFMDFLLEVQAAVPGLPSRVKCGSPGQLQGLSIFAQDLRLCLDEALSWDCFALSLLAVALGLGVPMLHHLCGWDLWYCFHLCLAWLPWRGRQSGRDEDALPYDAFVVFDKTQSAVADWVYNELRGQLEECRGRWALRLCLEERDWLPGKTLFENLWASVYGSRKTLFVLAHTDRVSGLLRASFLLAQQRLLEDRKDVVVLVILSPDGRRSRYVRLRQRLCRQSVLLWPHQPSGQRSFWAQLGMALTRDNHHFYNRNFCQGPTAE
Kind of assay: Antagonist activity at human TLR9 overexpressed in HEK-Blue cells assessed as inhibition of ODN2006-induced NFkappaB and AP-1 activation at 10 uM preincubated for 30 mins followed by ODN2006 stimulation measured after 22 hrs by quanti-blue SEAP assay relative to control. It counts as cell-based.

By inhibition is commonly meant the share of the control response that was lost under treatment. For `CNCCN1CCC(c2ccc3[nH]c(-c4ccccc4Cl)c(F)c3c2)CC1`, the inhibition came out at 23%.
